Literature values as cited in US5866346A (priority 1997, dated 1999).

Chains of the proteins cited; added tags and fusions are not shown. Lines headed by an entry give the natural chain unless they say otherwise; changes in a name come on top.
UniProt P41146: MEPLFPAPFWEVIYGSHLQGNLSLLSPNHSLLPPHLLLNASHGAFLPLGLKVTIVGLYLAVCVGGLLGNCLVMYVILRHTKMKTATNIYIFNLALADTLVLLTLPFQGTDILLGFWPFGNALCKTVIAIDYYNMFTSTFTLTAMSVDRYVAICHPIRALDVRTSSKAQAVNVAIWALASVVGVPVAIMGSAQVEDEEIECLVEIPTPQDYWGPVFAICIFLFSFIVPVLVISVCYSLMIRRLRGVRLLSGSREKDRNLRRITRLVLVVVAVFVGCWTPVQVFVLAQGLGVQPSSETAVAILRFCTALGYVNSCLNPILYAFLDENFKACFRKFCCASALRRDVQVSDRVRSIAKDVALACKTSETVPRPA

Molecular target: novel opioid receptor-like receptor (XOR1, hORL-I) (Homo sapiens, UniProt P41146)
Conditions: Mollereau et al., FEBS Lett. 341:33-38 (1994); cited from earlier work

CO[C@]12CC[C@@]3(C[C@@H]1C(C)(C)O)[C@H]1Cc4ccc(O)c5c4[C@@]3(CCN1CC1CC1)[C@H]2O5
effect on adenylyl cyclase in CHO-K1 cells transfected with the receptor clone: antagonized the inhibitory action of etorphine
